{"sequences": {"note": "The chains behind the UniProt entries cited, without tags or fusion partners.", "UniProt Q01196, whole entry, looked up": "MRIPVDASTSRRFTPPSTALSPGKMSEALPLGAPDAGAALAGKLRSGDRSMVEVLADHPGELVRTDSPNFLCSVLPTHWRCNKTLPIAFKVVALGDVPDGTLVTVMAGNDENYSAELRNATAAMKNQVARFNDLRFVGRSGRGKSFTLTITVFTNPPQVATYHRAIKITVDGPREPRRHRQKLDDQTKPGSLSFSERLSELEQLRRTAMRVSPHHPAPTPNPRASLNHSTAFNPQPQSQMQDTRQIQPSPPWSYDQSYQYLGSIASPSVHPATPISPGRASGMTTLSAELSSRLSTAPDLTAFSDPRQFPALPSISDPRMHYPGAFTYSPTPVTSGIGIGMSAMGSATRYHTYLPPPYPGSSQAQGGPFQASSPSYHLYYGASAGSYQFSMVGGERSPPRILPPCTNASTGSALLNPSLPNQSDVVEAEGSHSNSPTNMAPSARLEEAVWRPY", "UniProt Q13951, whole entry, looked up": "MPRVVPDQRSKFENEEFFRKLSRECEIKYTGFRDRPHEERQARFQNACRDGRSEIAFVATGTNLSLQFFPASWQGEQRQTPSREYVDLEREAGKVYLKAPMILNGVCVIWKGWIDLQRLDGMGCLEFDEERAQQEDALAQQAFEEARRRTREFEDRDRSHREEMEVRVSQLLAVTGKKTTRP"}, "source": "PubChem BioAssay AID1477", "about": "(National Center for Advancing Translational Sciences (NCATS), 2009)", "note": "In all, about 230,000 compounds went through this assay and fewer than 10 were called active. These results got no clear call from the source, so the numbers are uncertain. Calls follow the shape of the dose curve; as a rule, active = well fitted curve in the direction sought with a large enough effect; inconclusive = small, poorly fitted or top-dose-only effect, or effect the other way, or another doubt; inactive = no such curve, though single readings can be large or run the other way.", "data": [{"biological_target": "Runt-related transcription factor 1 (Homo sapiens) + Core-binding factor subunit beta (Homo sapiens) (UniProt Q01196+Q13951)", "assay": "qHTS Assay for Compounds Blocking the Interaction Between CBF-beta and RUNX1 for the Treatment of Acute Myeloid Leukemia", "details": "AlphaScreen CBFb-His/RUNX1-biotin binding, biochemical", "values": [{"smiles": "O=[N+]([O-])CC(O)c1ccc([N+](=O)[O-])cc1", "note": "(centres undefined)", "Potency": "inconclusive: 11.2 µM"}, {"smiles": "Cc1ccc(NCCc2c([N+](=O)[O-])cc([N+](=O)[O-])cc2[N+](=O)[O-])cc1", "Potency": "inconclusive: 22.4 µM"}, {"smiles": "O=[N+]([O-])c1cc([N+](=O)[O-])c(CCNc2ccccc2)c([N+](=O)[O-])c1", "Potency": "inconclusive: 15.8 µM"}, {"smiles": "CCc1nc2c(n1)c1c(non1O)c1c2no[n+]1[O-]", "Potency": "inconclusive: 39.8 µM"}]}]}
